# Measured values from PMC10350920, “Development of a 2,4-Diaminothiazole Series for the Treatment of Human African Trypanosomiasis Highlights the Importance of Static–Cidal Screening of Analogues” (Journal of Medicinal Chemistry, 2023).
# Experiment: Pharmacokinetics in NMRI mice
# Details: IP, 10 mg kg^–1
substance,measurement,value
"(4-Amino-2-(cyclohexylamino)thiazol-5-yl)(2,6-difluorophenyl)methanone [Compound 16]",free blood concentrations relative to EC50/EC90,did not reach the EC50 or EC90
